Measurements from BindingDB's records for US10053433, “Androgen receptor antagonists” (2018).

By UniProt entry, the sequences of proteins in these tests, tags left out. Where a name states a change or a piece, a line headed by the entry shows the natural chain unless it says otherwise.
UniProt P10275: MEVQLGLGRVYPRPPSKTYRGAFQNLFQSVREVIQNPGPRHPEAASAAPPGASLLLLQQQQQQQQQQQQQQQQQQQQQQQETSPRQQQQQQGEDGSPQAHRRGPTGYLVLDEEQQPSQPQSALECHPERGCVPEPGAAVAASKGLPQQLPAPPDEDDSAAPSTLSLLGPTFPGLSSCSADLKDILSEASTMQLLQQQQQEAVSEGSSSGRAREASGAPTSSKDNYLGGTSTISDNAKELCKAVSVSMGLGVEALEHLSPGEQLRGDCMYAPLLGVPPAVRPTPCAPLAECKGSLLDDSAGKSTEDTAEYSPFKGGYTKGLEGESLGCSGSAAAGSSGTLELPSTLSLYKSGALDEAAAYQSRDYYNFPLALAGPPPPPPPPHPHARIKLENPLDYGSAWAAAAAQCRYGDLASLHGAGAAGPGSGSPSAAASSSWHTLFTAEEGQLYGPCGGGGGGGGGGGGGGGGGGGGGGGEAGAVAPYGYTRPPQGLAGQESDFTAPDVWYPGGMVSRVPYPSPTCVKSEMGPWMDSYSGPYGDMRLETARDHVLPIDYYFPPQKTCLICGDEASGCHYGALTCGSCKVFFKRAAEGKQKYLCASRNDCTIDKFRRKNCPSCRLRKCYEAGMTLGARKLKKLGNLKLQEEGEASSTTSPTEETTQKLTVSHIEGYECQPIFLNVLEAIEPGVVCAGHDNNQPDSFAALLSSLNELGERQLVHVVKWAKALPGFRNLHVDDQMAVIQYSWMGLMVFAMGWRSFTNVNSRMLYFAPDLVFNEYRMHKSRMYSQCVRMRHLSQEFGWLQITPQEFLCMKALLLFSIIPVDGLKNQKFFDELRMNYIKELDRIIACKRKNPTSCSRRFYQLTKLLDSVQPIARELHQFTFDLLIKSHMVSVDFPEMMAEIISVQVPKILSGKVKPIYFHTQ

Molecular target: Androgen receptor (Homo sapiens, UniProt P10275)
Experiment: Gal4-luciferase reporter assay
Settings: pH 7.5

Structure (SMILES): C[C@](O)(CS(=O)(=O)c1ccc(F)cc1)C(=O)Nc1ccc([N+](=O)[O-])c(C(F)(F)F)c1
- IC50: 22.4 µM
